Laboratory results as given in article PMC4933725, “Traxoprodil, a selective antagonist of the NR2B subunit of the NMDA receptor, potentiates the antidepressant-like effects of certain antidepressant drugs in the forced swim test in mice” (Metabolic Brain Disease, 2016).
Structures can show the parent of a compound that is named as a salt.

Tested on: mice
Experiment: Spontaneous locomotor activity (Opto-Varimex-4 Auto-Track)
Type: in vivo, Albino Swiss mice
Conditions: administered either alone or combined together, doses of Table 2 (traxoprodil 10 and 20 mg/kg); two-way ANOVA
Method: In order to avoid the risk of obtaining the false positive/negative effects in the FST caused by a possible influence of the tested drugs on the locomotor activity, spontaneous locomotor activity was measured using an animal activity meter Opto-Varimex-4 Auto-Track (Columbus Instruments, USA). The device consists of four transparent cages with a lid (43 × 43 × 32 cm), a set of four infrared emitters (each emitter has 16 laser beams), and four detectors monitoring animal movements. Each mouse was placed individually into the cage for 10 min. Spontaneous locomotor activity was evaluated between the 2nd and the 6th min, which corresponds with the time interval analyzed in the FST.
The results obtained in this test were presented as an arithmetic average distance (given in cm) traveled by a mouse ± SEM for each experimental group.

In the case of `CCOc1ccccc1OC(c1ccccc1)C1CNCCO1` (stereo not shown) [reboxetine, reboxetine mesylate], the “effects on locomotor activity” value is reported as “no statistically significant effects”.
